Ab-14 heavy chain CDR variants: yeast mating affinities

Source: Li et al. 2023 (doi:10.1038/s41467-023-39022-2), MIT Lincoln Laboratory and A-Alpha Bio; data file from the FLAb repository.

All variants were tested on one target, the spike HR2 peptide PDVDLGDISGINAS (SARS-CoV-2).

Parent: Ab-14, a human scFv built as VH, a 15-residue (Gly4Ser)3 linker, VL. Only the CDRs of the heavy chain vary.
VH: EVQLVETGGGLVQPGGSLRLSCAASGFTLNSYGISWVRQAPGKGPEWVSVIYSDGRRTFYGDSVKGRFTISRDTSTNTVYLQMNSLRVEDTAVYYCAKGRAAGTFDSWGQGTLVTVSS
VL: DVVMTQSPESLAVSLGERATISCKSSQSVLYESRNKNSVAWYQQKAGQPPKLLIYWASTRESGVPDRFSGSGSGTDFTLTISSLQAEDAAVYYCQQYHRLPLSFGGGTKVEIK

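Phage display of a naive human antibody library on the peptide gave the parent. This is the validation round: designs drawn from the data on random variants, tested in the same kind of assay. Their group label is 14H_En_Gibbs (En: ensemble of fine-tuned language models; Gibbs: Gibbs sampling). In AlphaSeq, yeast of one mating type display the scFv and yeast of the other type display the target. The frequency of each diploid, read from paired DNA barcodes, reflects how well the two displayed proteins bind. A regression on co-assayed BCL2-family reference pairs converts the normalised counts of each replicate to an apparent Kd. The assay was run in six technical replicates.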

Each variant is given by its three heavy chain CDRs, as the data file delimits them; those of the parent are GFTLNSYGIS, VIYSDGRRTFYGDSVK, GRAAGTFDS.
Affinities are written as log10 Kd with Kd in nM; a lower number is a better binder.
The mean shown is taken over the replicates in which the pair was detected.
A pair that was not seen in that replicate is written "nd"; this usually means weak binding, but a binder can also be missed.

| CDR-H1 | CDR-H2 | CDR-H3 | log10 Kd, replicates | mean, log10 nM | signal with controls |
|---|---|---|---|---|---|
| GFQLNEYGIS | VIYADGIRREYASKVK | GGINASFDL | nd / nd / nd / nd / nd / nd | nd | 0/18 |
| GFGLDEYGIS | VIYADGNRVFYADTVK | GLLGILKVV | nd / nd / nd / nd / nd / nd | nd | 0/18 |
| GFDLDEYGIS | VIYADGSRVFYADTVK | GLLGKLVVV | nd / nd / nd / nd / nd / nd | nd | 0/18 |
| GKSLEEYGIS | VIYADGQRNAYAETVK | GNNGGVFGY | nd / nd / nd / nd / nd / nd | nd | 0/18 |
| GFDVDEYGIS | VIYADGFRTSYAADVK | GSQVGNGLV | nd / nd / nd / nd / nd / nd | nd | 0/18 |
| GEVLDEYGIS | VIYADGSRVQYTDAVK | GLLTGAFDM | nd / nd / nd / nd / nd / nd | nd | 0/18 |
| GDSLNEYGIS | VIYADGFRAAYTDKVK | GVTVGNFSS | nd / nd / nd / nd / nd / nd | nd | 0/18 |
| GFDLGEYGIS | VIYADGHRRAYSDDVK | GMHSGSVQT | 2.63 / 3.40 / nd / nd / 4.74 / nd | 3.59 | 0/18 |
| GFDIEEYGIS | VIYADGSRTEYSDSVK | SGYTFNMDL | nd / nd / nd / nd / nd / nd | nd | 1/18 (1.43) |
| GFDLQEYGIS | VIYADGSRTAYVQNVK | GLTLDSYVF | nd / nd / nd / nd / nd / nd | nd | 0/18 |
| GYSIDEYGIS | VIYADGQRTAYQNAVK | GEQAGIMMY | 2.32 / 2.28 / 1.80 / nd / 1.14 / 1.71 | 1.85 | 0/18 |
| EFDLNNYGIS | VIYADGLRTQYETSVK | GDVAGTFVS | 1.80 / nd / nd / 2.24 / nd / nd | 2.02 | 0/18 |
| GFGLDEYGIS | VIYADGVRRSYVDNVK | GFDGEKGIV | nd / nd / nd / nd / nd / nd | nd | 0/18 |
| GFDLEQYGIS | VIYADGVRTAYSQNSK | GDDGIALDI | nd / nd / nd / nd / nd / nd | nd | 0/18 |
| GFDLEKMGIS | VIYADGSRSAYAQDVK | GGHAGGFHV | nd / nd / nd / nd / nd / nd | nd | 0/18 |
| GFNLNEYGIS | VIYADGHRSAYVSNVK | GHLGGTFSM | 2.02 / nd / 1.41 / 1.45 / 2.12 / 1.51 | 1.70 | 0/18 |
| GFNLNEYGIS | VIYADGRRTAYADSVK | NQNMSGMVT | nd / nd / nd / nd / nd / nd | nd | 0/18 |
| GADLNEYGIS | VIYADGMRSALINSVK | GTLSGTFIA | nd / nd / nd / nd / nd / nd | nd | 0/18 |
| GFNLDEYGIS | VIYADGQRTAYDQAVK | GRMGTWNIV | -0.34 / -0.24 / -0.32 / -0.52 / -0.35 / -0.11 | -0.31 | 1/18 (1.99) |
| GFELQEYGIS | VIYADGRKQSYRDKFK | GGIAGNFDM | nd / nd / nd / nd / nd / nd | nd | 0/18 |
| GFDLNEYGVS | VIYADGQRTYYTESVK | GNFWDQLFV | 0.04 / 0.23 / 0.35 / -0.13 / 0.29 / 0.01 | 0.13 | 0/18 |
| GFDLGEYGIS | VIYADGTRTAYVTKVK | GTIAGMFFL | nd / nd / nd / nd / nd / nd | nd | 1/18 (2.55) |
| GENIEEYGIS | VIYADGRRTAYAEPVK | GDSGGTIDT | nd / nd / nd / nd / 1.59 / nd | 1.59 | 2/18 (2.13) |
| GDVLDEYGIS | VIYADGRRTAYTQDVK | GDKAGSLSV | nd / nd / nd / nd / nd / nd | nd | 0/18 |
| GFGLMDYGIS | VIYADGMRRSYANSFK | GAHAGTFDE | 1.73 / 1.22 / 0.84 / 1.75 / 1.42 / 2.34 | 1.55 | 0/18 |
| GFSLEDYGIS | VIYADGVRTAYVNAVK | GTWGATILG | nd / nd / nd / nd / nd / nd | nd | 0/18 |
| GFDLEEYGIS | VIYADGMRTTYIDKVK | GIAGDSFLV | 0.86 / 1.15 / 1.56 / 0.59 / 0.89 / 0.97 | 1.00 | 0/18 |
| GFNLNEYGIS | VIYADGNRNFYADSVK | GLHAGFFDI | nd / nd / nd / nd / nd / nd | nd | 0/18 |
| GMDINEYGVS | VIYADGNRTMYQDNVK | GIEGGSFVL | nd / nd / nd / nd / nd / nd | nd | 0/18 |
| GFSLEEFGIS | VIYADGSRRAYAQDVK | GGTAGIFVV | nd / nd / nd / nd / nd / nd | nd | 0/18 |
| GMDLQDYGIS | VIYADGRRTAFSHSVK | GQIAGTFNF | -0.73 / -0.57 / -0.23 / -0.33 / -0.84 / -0.22 | -0.49 | 0/18 |
| GYDLNEYGIS | VIYADGVRVAYQNQVK | GNINGSFTF | nd / nd / nd / nd / nd / nd | nd | 1/18 (1.90) |
| GFDLNEFGIS | VIYADGLQTFYTDNVK | GGNQGTFVI | nd / nd / nd / nd / nd / nd | nd | 0/18 |
| GFQLNEYGIS | VIYADGMRTMYADSFK | GMKSVNIGD | 0.50 / 0.62 / 0.78 / 4.31 / 0.48 / 0.71 | 1.23 | 1/18 (1.82) |
| GPGLQEYGIS | VIYADGIRSAYTDDVK | GQNAGHFLE | nd / nd / nd / nd / nd / nd | nd | 0/18 |
| GFSLDEYGIS | VIYADGARSFYTNKVK | GVTVGDNGT | nd / nd / nd / nd / nd / nd | nd | 1/18 (3.07) |
| GFGLDEYGIS | VIFADGQRKYYTDNVK | GHFGEDGVV | nd / nd / nd / nd / nd / nd | nd | 0/18 |
| GFDLMEYGIS | VIYADGKRFSYIDDVK | GYSTGFLTV | nd / nd / 1.91 / nd / nd / 2.20 | 2.06 | 1/18 (2.00) |
| GKSLDEYGIS | VIYADGLRKVYANNVK | GQFDDAMDL | nd / nd / nd / nd / nd / nd | nd | 0/18 |
| GFGIDDYGIS | VIYADGQRKMYQDNVK | GNVGSLFSV | nd / nd / nd / nd / nd / nd | nd | 0/18 |
| GFNLNEYGIS | VIYADGQRLSYDDKVK | GDIGGTFND | 2.60 / 0.89 / 1.22 / -0.08 / 0.49 / 1.66 | 1.13 | 0/18 |
| GFSLDEYGIS | VIYADGARAAYTNDFK | GNIGGVFGK | nd / nd / 0.74 / 2.25 / nd / nd | 1.50 | 0/18 |
| GDGLDEYGIS | VIYADGQRKFYADNVK | GVFGSLGQV | nd / nd / nd / nd / nd / nd | nd | 0/18 |
| GPSLDEYGIS | VIYADGVRQYYADDVK | GGIAGQVNY | nd / nd / nd / nd / nd / nd | nd | 0/18 |
| GFSLDEYGIS | VIYADGNRQEYIDDVK | GNYGGDFIE | nd / nd / nd / nd / nd / nd | nd | 1/18 (2.14) |
| KENIDEYGIS | VIYADGRRTAYTQDVK | GQNGGQIDV | nd / 3.00 / 3.54 / nd / nd / 2.00 | 2.85 | 2/18 (1.81) |
| GFSLDDYGIS | VIYADGKRTMYAESVK | GQIAGSLSN | -0.08 / 0.13 / 0.33 / 0.50 / -0.12 / -0.07 | 0.12 | 0/18 |
| GSDLEEYGIS | VIYADGMRMVYADSVK | GHYGLGKVM | nd / nd / nd / nd / nd / nd | nd | 0/18 |

The 3 strongest on average among those seen in every replicate, once more:

CDR-H1	CDR-H2	CDR-H3	log10 Kd, replicates	mean, log10 nM	signal with controls
GMDLQDYGIS	VIYADGRRTAFSHSVK	GQIAGTFNF	-0.73 / -0.57 / -0.23 / -0.33 / -0.84 / -0.22	-0.49	0/18
GFNLDEYGIS	VIYADGQRTAYDQAVK	GRMGTWNIV	-0.34 / -0.24 / -0.32 / -0.52 / -0.35 / -0.11	-0.31	1/18 (1.99)
GFSLDDYGIS	VIYADGKRTMYAESVK	GQIAGSLSN	-0.08 / 0.13 / 0.33 / 0.50 / -0.12 / -0.07	0.12	0/18

The range of this assay differs from that of the first round, and the authors advise against merging the two.
Of ten entries with the parent sequence, four were seen in most replicates (averages 0.34 to 2.37), three in one and three in none, so single entries are noisy.
In the paper, a design with two or fewer of six values counts as a poor binder.
Empty control strains, which show no peptide, gave a signal in 1% of pairings with all heavy chain designs; the median was 2.08 and 95% of these signals were weaker than 0.84. No background was subtracted. The control count says in how many pairings with the empty strains this scFv gave a signal, with their mean in brackets.